Data from patent publication EP1285920A1, “C10 Ester sustituted taxanes as antitumor agents” (Florida State University Research Foundation, Inc., priority 2001, dated 2003).

Assays:
HCT116 carcinoma = test system: HCT116 carcinoma
Procedure: Antitumor compounds were formulated for an i.v. dosing regime and were prepared in the following vehicle: 5% ethanol, 5% Cremophor and 90% isotonic saline.
The antitumor compounds were given intravenously in a single maximum tolerated dose (MTD) appropriate for each compound. […] The MTDs for the antitumor compounds were calculated from earlier single dose data for mice receiving i.v. administration of these compounds. All vehicle control animals in the split dosing regimes were dosed twice intravenously with half of the total volume being given separated by one hour. The study was terminated on Day 60.
A complete response is obtained if the tumor is not palpable at the end of the study.

VM46 colon carcinoma = settings: for tolerability: i.v. qd x 1
Procedure: Dosing was initiated on Day 1. […] Taxotere was given i.v. at a dose of 70 mg/kg on a qd x 1 schedule.

A375 melanoma = settings: for antitumor activity: i.v. qd x 1; for toxic deaths: i.v. qd x 1, six mice per group
Procedure: Dosing was initiated on Day 1. […] Taxotere was given i.v. on a qd x 1 schedule at a dose of 70 mg/kg. […] The study was terminated on Day 60. Treatment groups are detailed in Table 9.

MX-1 carcinoma = settings: for antitumor activity / tumor response: i.v. qd x 1, Day 60
Procedure: Thirteen antitumor compounds were formulated for an i.v. dosing regime (single i.v. bolus, qd x 1 schedule) prepared in the following vehicle: 5% ethanol, 5% Cremophor and 90% isotonic saline.
The antitumor compounds were given intravenously in a single maximum tolerated dose (MTD) appropriate for each compound. […] The MTDs for the antitumor compounds were calculated from earlier single dose data for mice receiving i.v. administration of these compounds. All vehicle control animals in the split dosing regimes were dosed twice intravenously with half the total volume being given separated by one hour. The study was terminated on Day 60.
A complete response is obtained if the tumor is not palpable at the end of the study. […]

A2780 ovarian carcinoma = settings: for antitumor activity / toxic deaths: A2780, i.v. qd x 1; for toxic deaths: five mice per group
Procedure: Dosing was initiated on Day 1. […] Taxotere was given i.v. on a qd x 1 schedule at a dose of 70 mg/kg. […] The study was terminated on Day 60. Treatment groups are detailed in Table 7.

DU145 prostate carcinoma = test system: DU145 prostate carcinoma
Text: Dosing was initiated on Day 1. […] Treatment groups are detailed in Table 5.

[1] = test system: Panc-1 pancreatic carcinoma; settings: Panc-1 (Example 18); i.v. qd x 1; six mice per group
[2] = test system: Panc-1 pancreatic carcinoma; assay: In vivo evaluation against Panc-1 human pancreatic carcinoma (Example 17); settings: Panc-1 (Example 17); 0854 76.9 mg/kg i.v.
[3] = i.v. qd x 1, five mice per group
[4] = i.v. qd x 1, six mice per group

CCC(=O)O[C@H]1C(=O)[C@@]2(C)[C@H]([C@H](OC(=O)c3ccccc3)[C@]3(O)C[C@H](OC(=O)[C@H](O)[C@@H](NC(=O)c4ccccc4)c4ccoc4)C(C)=C1C3(C)C)[C@]1(OC(C)=O)CO[C@@H]1C[C@@H]2O [Compound 0670]
complete responses (HCT116 carcinoma; [3]): Two | partial response (HCT116 carcinoma; [3]): one | tolerability (VM46 colon carcinoma): well-tolerated | toxic deaths (VM46 colon carcinoma; [4]): no toxic deaths | antitumor activity (A375 melanoma): not active

CCC(=O)OC1C(=O)C2(C)C(O)CC3OCC3(OC(C)=O)C2C(OC(=O)c2ccccc2)C2(O)CC(OC(=O)C(O)C(NC(=O)c3ccccc3)c3cccs3)C(C)=C1C2(C)C (centres unmarked) [Compound 0687]
antitumor activity / tumor response (MX-1 carcinoma): complete and durable tumor regressions in all the treated mice | antitumor activity (A2780 ovarian carcinoma): did not cause any complete responses, partial responses, or cases of stable disease

CCC(=O)O[C@H]1C(=O)[C@@]2(C)[C@H]([C@H](OC(=O)c3ccccc3)[C@]3(O)C[C@H](OC(=O)[C@H](O)[C@@H](NC(=O)c4ccccc4)C4CC4)C(C)=C1C3(C)C)[C@]1(OC(C)=O)CO[C@@H]1C[C@@H]2O [Compound 0706]
tolerability (VM46 colon carcinoma): well-tolerated | partial responses (VM46 colon carcinoma; i.v. qd x 1 (compounds estimated MTD; Taxol 24 mg/kg split), six mice per group, ended Day 64): two | complete response (VM46 colon carcinoma; [4]): one | toxic deaths (VM46 colon carcinoma; [4]): no toxic deaths | antitumor activity / tumor response (MX-1 carcinoma): complete and durable tumor regressions in all the treated mice | antitumor activity (A2780 ovarian carcinoma): did not cause any complete responses, partial responses, or cases of stable disease | antitumor activity (A375 melanoma): improved survival | tolerability (DU145 prostate carcinoma; i.v. qd x 1): well-tolerated | stable disease (DU145 prostate carcinoma; [3]): one

CC(=O)O[C@@]12CO[C@@H]1C[C@H](O)[C@@]1(C)C(=O)[C@H](OC(=O)C3CC3)C3=C(C)[C@@H](OC(=O)[C@H](O)[C@@H](NC(=O)OC(C)(C)C)c4cccs4)C[C@@](O)([C@@H](OC(=O)c4ccccc4)[C@H]21)C3(C)C [Compound 0854]
tolerability (VM46 colon carcinoma): Acceptable toxicity | toxic deaths (VM46 colon carcinoma; [4]): not more than one | toxic deaths / toxic lethalities [1]: all animals receiving this agent died | toxicity [2]: highly toxic | toxic deaths (A375 melanoma): at least three | toxic deaths / toxic lethalities (DU145 prostate carcinoma; [3]): at least two

CCCC(=O)O[C@H]1C(=O)[C@@]2(C)[C@H]([C@H](OC(=O)c3ccccc3)[C@]3(O)C[C@H](OC(=O)[C@H](O)[C@H](C=C(C)C)NC(=O)OC(C)(C)C)C(C)=C1C3(C)C)[C@]1(OC(C)=O)CO[C@@H]1C[C@@H]2O [Compound 0947]
toxic deaths (MX-1 carcinoma; [4]): Two | toxic deaths (A2780 ovarian carcinoma): one

CCCC(=O)O[C@H]1C(=O)[C@@]2(C)[C@H]([C@H](OC(=O)c3ccccc3)[C@]3(O)C[C@H](OC(=O)[C@H](O)[C@@H](NC(=O)OC(C)(C)C)c4ccco4)C(C)=C1C3(C)C)[C@]1(OC(C)=O)CO[C@@H]1C[C@@H]2O [Compound 0983]
toxic deaths (HCT116 carcinoma; single i.v. MTD, five mice per group): two | toxic deaths (VM46 colon carcinoma; [4]): three | antitumor activity / tumor response (MX-1 carcinoma): complete and durable tumor regressions in all the treated mice | toxic deaths (A2780 ovarian carcinoma): five | tolerability / toxicity (A2780 ovarian carcinoma; mouse, in vivo, iv): excessive toxicity

CCCC(=O)O[C@H]1C(=O)[C@@]2(C)[C@H]([C@H](OC(=O)c3ccccc3)[C@]3(O)C[C@H](OC(=O)[C@H](O)[C@@H](NC(=O)OC(C)(C)C)c4ccsc4)C(C)=C1C3(C)C)[C@]1(OC(C)=O)CO[C@@H]1C[C@@H]2O [Compound 1011]
antitumor activity / tumor response (MX-1 carcinoma): complete and durable tumor regressions in all the treated mice | toxic deaths (A375 melanoma): at least three | toxic deaths / toxic lethalities (DU145 prostate carcinoma; [3]): at least two
